Only a part is listed here, and it is no random draw. Some of these compounds have results that are not shown, active ones among them. The source made the active and inactive calls.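 How the source made its calls: active means inhibition above the mean inhibition across all screened compounds plus 3 SD (cut at about 11% in these data); inactive means the rest.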

The chains behind the UniProt entries cited, without tags or fusion partners.
UniProt P86926, whole entry: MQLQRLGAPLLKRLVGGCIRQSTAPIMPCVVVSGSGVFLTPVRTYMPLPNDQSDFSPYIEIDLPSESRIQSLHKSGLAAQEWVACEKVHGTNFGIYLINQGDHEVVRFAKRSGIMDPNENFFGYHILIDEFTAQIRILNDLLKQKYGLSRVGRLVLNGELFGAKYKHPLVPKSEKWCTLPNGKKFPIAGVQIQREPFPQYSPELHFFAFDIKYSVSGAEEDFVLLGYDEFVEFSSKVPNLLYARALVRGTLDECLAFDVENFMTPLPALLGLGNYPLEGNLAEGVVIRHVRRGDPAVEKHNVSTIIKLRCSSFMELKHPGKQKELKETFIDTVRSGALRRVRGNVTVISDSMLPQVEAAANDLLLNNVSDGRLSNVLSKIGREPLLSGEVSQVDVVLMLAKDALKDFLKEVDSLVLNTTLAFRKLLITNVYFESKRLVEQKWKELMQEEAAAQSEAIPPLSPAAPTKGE

In the assay the target is RNA-editing ligase 1, mitochondrial (Trypanosoma brucei brucei) (UniProt P86926). As to the kind of experiment: T. brucei editing ligase REL1 blockade – biochemical, FRET fluorescence, primary screen (AID 1117264).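 Further: 0% = plate median of test wells and 100% = NSC42067 control.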 Conditions: TbREL1 RNA ligation, at 9.66 µM, active compounds read high.
Turning to `Cc1ccc(C(=O)NCC2(N3CCCCC3)CCCCC2)cc1`, the inhibition is inactive: 0.7%.
As for `O=C(NCC1(N2CCCCC2)CCCCC1)c1cccc(Br)c1`, the inhibition is inactive: -0.15%.
For `C=CCN1CCN(CCOC(=O)C(O)(c2ccccc2)c2ccccc2)CC1` the value was inactive: -0.74%; for `CN(C)c1cccc(C(=O)NCC2(N(C)C)CCCCC2)c1`, inactive: -3.97%.
Turning to `O=C(OCCN1CCCC1)C(O)(c1ccccc1)c1ccccc1`, the inhibition is inactive: -0.84%.
For the compound `O=C(OC1CN2CCC1CC2)C(CO)(c1ccccc1)c1ccccc1` (stereo unspecified), the inhibition is inactive: -0.16%.

For the origin of these results see PubChem BioAssay AID1117264 (The Scripps Research Institute Molecular Screening Center, 2014).
